Values quoted from earlier work, collected in patent publication US9926354B2, “Amyloid precursor protein (APP) based Ã#-secretase inhibitor peptides, and methods of use” (UNIVERSITY OF SOUTH FLORIDA, priority 2014, dated 2018).

By UniProt entry, the sequences of proteins in these tests, tags left out. Residues count along the entry.
UniProt P56817, 46-501: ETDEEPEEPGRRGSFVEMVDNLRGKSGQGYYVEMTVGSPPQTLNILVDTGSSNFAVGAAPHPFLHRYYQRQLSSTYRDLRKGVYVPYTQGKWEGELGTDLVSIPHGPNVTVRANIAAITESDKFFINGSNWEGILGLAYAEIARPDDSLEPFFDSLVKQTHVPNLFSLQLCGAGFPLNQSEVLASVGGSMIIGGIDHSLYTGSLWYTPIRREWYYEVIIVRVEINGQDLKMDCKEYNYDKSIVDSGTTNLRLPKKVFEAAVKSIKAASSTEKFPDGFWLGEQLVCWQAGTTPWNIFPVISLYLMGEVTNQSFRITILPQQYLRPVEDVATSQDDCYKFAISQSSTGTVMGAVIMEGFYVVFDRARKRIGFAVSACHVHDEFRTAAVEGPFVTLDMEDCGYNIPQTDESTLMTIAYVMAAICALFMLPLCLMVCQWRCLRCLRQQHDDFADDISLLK

Target: BACE1 (Homo sapiens, UniProt P56817)
Settings: cited from earlier work

EVNLA*AEF [OM99-2]
ability to cross the BBB: too large (>18 amino acids residues) to cross the BBB | potency: high level of potency | stability: not stable enough for use in therapeutic trials
